Data as given in article PMC6624406 (British Journal of Clinical Pharmacology, 2019).

Parameters: species or system human
Settings: in vivo

buprenorphine
C24, adjusted geometric mean (90% CI): 780 (638–953) pg/mL and 1082 (949–1234) pg/mL | C24 GMR (90% CI): 1.39 (1.18–1.63) | Cmax, adjusted geometric mean (90% CI): 4187 (3835–4572) pg/mL and 5206 (4534–5977) pg/mL | Increase in Cmax, AUCτ and C24: 24–39%

Where “and” joins values, the source holds several entries; their conditions need not be identical. Equal values may be shown once.
